Experiments:
CDK1/cyclin B = CDK1/cyclin B (Homo sapiens (Human), UniProt P06493); experiment: CDK1/cyclin B enzymatic activity assay (IMAP-FP); details: 0.25 nM CDK1/cyclin B, 100 nM Tamra Histone-H1 peptide, 20 μM ATP, 120 min at room temperature; read-out: Biochemical CDK1 enzyme IC50
Source text: CDK1/Cyclin B Enzymatic Activity Assay
A 384-well microtiter IMAP-FP™ (Molecular Devices Trade Mark Technology) endpoint assay was used for CDK1/cyclin B kinase activity measurements. The same assay was used for IC50 determination of small molecule inhibitors.

By UniProt entry, the sequences of proteins in these tests, tags left out. Where a name states a change or a piece, a line headed by the entry shows the natural chain unless it says otherwise.
UniProt P06493, whole entry, species assumed: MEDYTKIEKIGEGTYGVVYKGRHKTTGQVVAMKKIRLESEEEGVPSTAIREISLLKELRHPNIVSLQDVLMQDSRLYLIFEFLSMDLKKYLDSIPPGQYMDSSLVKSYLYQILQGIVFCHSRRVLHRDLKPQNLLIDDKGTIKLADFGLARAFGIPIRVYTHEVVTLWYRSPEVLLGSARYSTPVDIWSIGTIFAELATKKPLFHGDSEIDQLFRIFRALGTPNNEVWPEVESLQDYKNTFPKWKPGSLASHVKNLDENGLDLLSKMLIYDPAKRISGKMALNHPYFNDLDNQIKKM
UniProt P11802: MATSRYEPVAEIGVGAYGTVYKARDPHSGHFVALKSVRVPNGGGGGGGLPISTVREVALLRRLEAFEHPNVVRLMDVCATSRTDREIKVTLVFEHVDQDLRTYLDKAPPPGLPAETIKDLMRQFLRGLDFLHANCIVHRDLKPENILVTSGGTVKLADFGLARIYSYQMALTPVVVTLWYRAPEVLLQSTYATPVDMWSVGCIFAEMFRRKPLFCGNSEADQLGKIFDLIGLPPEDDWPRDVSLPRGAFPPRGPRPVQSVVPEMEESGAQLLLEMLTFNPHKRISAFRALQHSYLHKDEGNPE

CDK4/cyclin D1 = CDK4/cyclin D1 (Homo sapiens (Human), UniProt P11802); experiment: CDK4/cyclin D1 enzymatic activity assay (TR-FRET, phosphorylation of pRb at Ser780); type: biochemical
Method: CDK4/Cyclin D1 Enzymatic Activity Assay
An assay for monitoring CDK4/cyclin D1-catalyzed phosphorylation of pRb at the Ser780 site was performed using TR-FRET in a 384-well format, and was used for IC50 determination and kinetic analysis. […] 3 μM ATP was added last to initiate the reaction. The reaction was quenched with 10 μL of 240 mM EDTA-Na (pH 8.0) after 60 min incubation at 22° C.
Human CDK4/cyclin D1 was expressed in Sf21 cells via baculovirus infection.

SMILES	IC50 (CDK1/cyclin B) [µM]	IC50 (CDK4/cyclin D1) [µM]
CN(C)C(=O)c1cc2cnc(Nc3ccc(C(=O)N4CCC5CCC(C4)N5)cn3)nc2n1C1CCCC1 (racemic) [Example 69, 7-Cyclopentyl-2-[5-(3,9-diaza-bicyclo[4.2.1]nonane-3-carbonyl)-pyridin-2-ylamino]-7H-pyrrolo[2,3-d]pyrimidine-6-carboxylic acid dimethylamide]	> 15	–
CN(C)C(=O)c1cc2cnc(Nc3ccc(C(=O)N4CC5CCCC(C4)N5)cn3)nc2n1C1CCCC1 [Example 52, 7-Cyclopentyl-2-[5-(3,9-diaza-bicyclo[3.3.1]nonane-3-carbonyl)-pyridin-2-ylamino]-7H-pyrrolo[2,3-d]pyrimidine-6-carboxylic acid dimethylamide]	> 15	–
CN(C)C(=O)c1cc2cnc(Nc3ccc(C(=O)N4CC5CCC(C4)N5)cn3)nc2n1C1CCC1 [Example 55, 7-Cyclobutyl-2-[5-(3,8-diaza-bicyclo[3.2.1]octane-3-carbonyl)-pyridin-2-ylamino]-7H-pyrrolo[2,3-d]pyrimidine-6-carboxylic acid dimethylamide]	> 15	0.014 to 0.036

Source: patent publication US8957074B2 (Novartis AG, priority 2010, dated 2015)
